These results are taken from US9902713B2, “Neuroprotective compounds and use thereof” (BOARD OF REGENTS OF THE UNIVERSITY OF TEXAS SYSTEM, priority 2013, dated 2018).

In experiment [1] the test system is blast-injured mice. Kind of experiment: Barnes maze after blast-mediated TBI. In kind it is in vivo. The settings on record: single enantiomers; for percent time in escape area, probe test: IP from 24 hours after injury, 3 mg/kg/day.
The test system of experiment [2] is newborn hippocampal neurons. Kind of experiment: In vivo neuroprotection assay: BrdU+ newborn hippocampal neurons. The settings on record: ICV 0.5 μL/h, 7 days, FIG. 2.
The subject of experiment [3] is dopaminergic neurons within the substantia nigra. Kind of experiment: MPTP model of Parkinson's disease, TH+ neurons in SNc. In kind it is in vivo, mice. The settings on record: IP, BID, 21 d, FIG. 3.
Experiment [4] concerns degenerating axons. Kind of experiment: Silver staining of degenerating axons after blast-mediated TBI. The settings on record: single enantiomers, 3 mg/kg/day.

With `COc1cccc(NCC(F)Cn2c3ccc(Br)cc3c3cc(Br)ccc32)n1` (single isomer, unassigned), in experiment [1] (3 mg/kg/d IP), the “percent quadrant time, probe test” value is “some protection at the margin of statistical significance” and the “percent target entry, probe test” value is “same deficit as blast-injured mice treated with vehicle”. Also, in experiment [1] (3 mg/kg/day from 24 hours after injury), the “learning (percent latency to escape)” value is on record as “learned significantly worse than sham-injury mice”. Besides, the “percent time in escape area, probe test” value in experiment [1] is listed as “no efficacy”. Also, the “percent time in escape area, probe test” value in experiment [1] (listed as B) is “inactive”. The “neuroprotective activity of pure enantiomers” value in experiment [2] (listed as (+)-enantiomer) is listed as “little activity”. In addition, in experiment [2] (listed as its enantiomer), the “neuroprotective activity of pure enantiomers” value was “no neuroprotective activity”. Also, the “neuroprotection by single enantiomers” value in experiment [3] was “indistinguishable from vehicle treatment”. In experiment [4], the “axonal degeneration, CA1 stratum radiatum” value is reported as “did not”; the “axonal degeneration, cerebellar molecular layer” value is recorded as “not”; the “silver staining in CA1, corpus callosum, thalamus, cortex, olfactory bulb, striatum, dentate gyrus, cerebellum” value is listed as “prominent silver staining of degenerating axons”.
